# Measured values taken from ChEMBL document CHEMBL6083264, “Superacid-Synthesized Fluorinated Diamines Act as Selective hCA IV Inhibitors” (J Med Chem, 2024).
# What was measured:
# [1] = Selectivity ratio of IC50 for CA-I (unknown origin) to IC50 for human CA-IV
# [2] = Selectivity ratio of IC50 for CA-II (unknown origin) to IC50 for human CA-IV
# [3] = Selectivity ratio of IC50 for CA-IX (unknown origin) to IC50 for human CA-IV
# [4] = Selectivity ratio of IC50 for CA-XII (unknown origin) to IC50 for human CA-IV
structure (smiles),measurement,setting,value
CC(F)CNS(=O)(=O)c1ccc([N+](=O)[O-])cc1 (centres undefined),Ratio IC50,[1],63
same,Ratio IC50,[2],34
same,Ratio IC50,[3],31
same,Ratio IC50,[4],59
